Source: patent US20230210861A1 (priority 2020, published 2023)
Several values for one entry are separate records, joined by “and”; a condition that tells them apart may be missing. Equal entries are not always repeated. Entries after “also recorded” stand apart in the source; their conditions may differ.

Chains of the proteins cited; added tags and fusions are not shown. Residues count along the entry.
UniProt P36544, 23-502: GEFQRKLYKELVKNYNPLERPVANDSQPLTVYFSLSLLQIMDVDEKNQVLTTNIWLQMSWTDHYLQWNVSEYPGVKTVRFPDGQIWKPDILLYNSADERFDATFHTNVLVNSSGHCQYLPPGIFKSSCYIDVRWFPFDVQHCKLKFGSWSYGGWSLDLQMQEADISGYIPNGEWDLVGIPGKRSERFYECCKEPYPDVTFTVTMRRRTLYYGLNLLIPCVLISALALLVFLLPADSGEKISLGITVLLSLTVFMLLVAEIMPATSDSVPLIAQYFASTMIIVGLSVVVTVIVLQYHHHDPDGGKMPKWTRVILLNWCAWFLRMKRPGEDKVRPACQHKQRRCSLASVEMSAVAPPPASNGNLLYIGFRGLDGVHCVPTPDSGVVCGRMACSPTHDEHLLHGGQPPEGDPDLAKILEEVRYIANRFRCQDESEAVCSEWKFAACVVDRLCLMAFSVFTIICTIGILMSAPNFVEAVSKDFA

Experiments:
[1] = target: T1, human alpha7 nAChR (Homo sapiens, UniProt P36544); assay: Desensitization / antagonistic activity, cumulative exposure in the low concentration range, alpha7 in Xenopus oocytes; type: cell-based; details: concentrations up to 300 nM; in words
[2] = target: T1, human alpha7 nAChR; assay: Agonist activity at human alpha7 nAChR expressed in Xenopus oocytes (two-electrode voltage clamp); type: cell-based
Source text: Agonist Preparation: See Example 1.

## varenicline tartrate [reference compound]
[1]
  inhibition of ACh-evoked current on sustained exposure, alpha7: caused inhibition for concentrations in the hundreds of nanomolar range; also recorded: causes a desensitization
[2]; after the agonist concentration series
  effect on the subsequent ACh-evoked current, alpha7: no significant inhibition of the subsequent ACh-evoked current
[2]; in words
  agonist character at nAChR alpha7: full agonist
[2]; test concentrations 0.1-300 uM, for compound 1 salts only an estimation given the small fraction of current evoked
  EC50: ~11 µM and ~15 µM
